In publication PMC9939304 (Acta Pharmaceutica Sinica. B, 2022):

Key:
FXR = biological target: T1, FXR (Homo sapiens, UniProt Q96RI1); assay type: cell-based; conditions: HK-2 cells
T1 sequence (Q96RI1 1-486): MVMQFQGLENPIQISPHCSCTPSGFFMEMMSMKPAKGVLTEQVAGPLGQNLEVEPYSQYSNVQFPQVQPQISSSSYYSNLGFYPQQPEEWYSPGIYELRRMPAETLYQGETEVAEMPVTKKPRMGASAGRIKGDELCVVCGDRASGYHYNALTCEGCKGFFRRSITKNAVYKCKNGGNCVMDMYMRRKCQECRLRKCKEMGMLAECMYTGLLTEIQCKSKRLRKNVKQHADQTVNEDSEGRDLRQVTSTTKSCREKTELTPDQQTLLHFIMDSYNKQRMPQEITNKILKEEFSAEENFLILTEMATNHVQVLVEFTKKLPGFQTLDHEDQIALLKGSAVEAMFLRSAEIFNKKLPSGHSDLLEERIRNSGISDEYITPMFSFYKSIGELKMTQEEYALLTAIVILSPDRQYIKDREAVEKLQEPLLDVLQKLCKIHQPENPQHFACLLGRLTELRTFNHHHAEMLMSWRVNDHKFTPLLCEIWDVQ

OCT2 protein = OCT2 protein expression in Caco-2 cells; assay type: cell-based, human; conditions: 48 h
[1] = In vivo tissue uptake clearance; conditions: iv metformin 10 mg/kg, within 3 min; liver; BDL rats

SMILES: CC(C)c1onc(-c2c(Cl)cccc2Cl)c1COc1ccc(/C=C/c2cccc(C(=O)O)c2)c(Cl)c1 [GW4064]
- Expressions of SHP and FGF19 mRNA (FXR): significantly upregulate

SMILES: C=CC1=C(C)/C(=C/c2[nH]c(Cc3[nH]c(/C=C4\NC(=O)C(C)=C4C=C)c(C)c3CCC(=O)O)c(CCC(=O)O)c2C)NC1=O [bilirubin]
- Concentration-dependent effect on expressions of OCT2 (OCT2 protein; CDCA 25, 50, 100 μmol/L, bilirubin 10, 25, 50 μmol/L): concentration-dependently increase
- Expressions of OCT2 protein by FXR agonists (OCT2 protein; CDCA 100, bilirubin 50, GW4064 1 μmol/L): induce expressions of OCT2 protein

SMILES: CN(C)C(=N)N=C(N)N [metformin]
- In vivo hepatic uptake of metformin, BDL vs Sham [1]: little affects
